{"sequences": {"note": "By UniProt entry, the sequences of proteins in these tests, tags left out.", "UniProt P10275, whole entry H875Y": "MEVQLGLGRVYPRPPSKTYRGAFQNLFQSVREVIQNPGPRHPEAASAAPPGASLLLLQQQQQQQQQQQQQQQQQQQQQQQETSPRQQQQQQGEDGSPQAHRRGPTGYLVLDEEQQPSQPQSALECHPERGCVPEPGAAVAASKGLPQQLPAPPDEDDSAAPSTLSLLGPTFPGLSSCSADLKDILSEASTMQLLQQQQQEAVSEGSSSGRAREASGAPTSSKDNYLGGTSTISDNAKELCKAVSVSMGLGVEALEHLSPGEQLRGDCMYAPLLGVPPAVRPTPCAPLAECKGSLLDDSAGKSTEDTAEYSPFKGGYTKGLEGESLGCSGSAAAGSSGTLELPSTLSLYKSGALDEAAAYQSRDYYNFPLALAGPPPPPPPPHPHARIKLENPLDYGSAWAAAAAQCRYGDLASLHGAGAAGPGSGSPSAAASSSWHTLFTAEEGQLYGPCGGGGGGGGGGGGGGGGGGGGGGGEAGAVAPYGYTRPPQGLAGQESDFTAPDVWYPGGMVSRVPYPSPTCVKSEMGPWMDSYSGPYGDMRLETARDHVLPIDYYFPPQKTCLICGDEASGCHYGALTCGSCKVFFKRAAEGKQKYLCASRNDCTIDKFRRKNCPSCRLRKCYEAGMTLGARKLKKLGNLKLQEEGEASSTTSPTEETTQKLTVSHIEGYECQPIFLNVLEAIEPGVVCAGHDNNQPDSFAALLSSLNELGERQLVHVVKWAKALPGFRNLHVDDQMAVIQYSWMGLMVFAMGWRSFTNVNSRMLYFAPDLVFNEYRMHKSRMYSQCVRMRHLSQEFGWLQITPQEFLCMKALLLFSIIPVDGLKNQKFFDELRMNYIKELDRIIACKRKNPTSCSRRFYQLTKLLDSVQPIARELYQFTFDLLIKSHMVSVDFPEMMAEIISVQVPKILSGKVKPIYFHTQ"}, "source": "patent EP3150203B1", "about": "“COMPOUNDS WITH (1E,6E)-1,7-BIS-(3,4- DIMETHOXYPHENYL)-4,4-DISSTITUTED-HEPA-1,6-DIENE-3,5-DI-ONE STRUCTURAL SCAFFOLD,THEIR BIOLOGICAL ACTIVITY, AND USES THEREOF” (Allianz Pharmascience Ltd, priority 2012, dated 2013)", "target": "Androgen Receptor (AR) (Homo sapiens, UniProt P10275, H875Y, form not given)", "assay": "Western Blot analysis of AR protein expression in CWR22Rv1 cells", "format": "cell-based", "settings": "read-out: Reduction of AR expression IC50 (µM) 24 h, Western blotting, 24 h post-incubation", "data": [{"smiles": "COc1ccc(/C=C/C(=O)C(C)(CCC(=O)O)C(=O)/C=C/c2ccc(OC)c(OC)c2)cc1OC", "values": [{"measurement": "IC50", "value": "> 5", "unit": "µM"}]}]}
